Source: paper PMC8317666, “Combining flavin photocatalysis with parallel synthesis: a general platform to optimize peptides with non-proteinogenic amino acids” (Chemical Science, 2021)

Target: Thrombin (Homo sapiens, UniProt P00734)
Test: Thrombin inhibition assay (Sigma Thrombin Inhibitor Screening Kit MAK243)
Settings: 80 μM peptide (screening grade, mixture of diastereomers), 15 min preincubation with thrombin at room temperature, AMC-based peptide substrate, 37 °C, 30 min incubation, fluorescence Ex/Em 350/450 nm, 384-well; replicate 1 of 2

Question: How did the “Percent thrombin inhibition, 1st run” value turn out when PPACK [reference compound] was run?
Answer: 100%
